Results on 20 compounds are retold here after PubChem BioAssay AID524 (The Scripps Research Institute Molecular Screening Center, 2006).

Structures are written as SMILES. The list shows a part of the results, in another mix than the full data. Activity calls are given as the source filed them.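 The calls were made as follows: active = inhibition above the screen-wide mean inhibition plus 3 SD (cut at about 21% in these data); inactive = the rest.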

The experiment deals with cAMP-dependent protein kinase catalytic subunit alpha (Homo sapiens) (UniProt P17612). Kind of experiment: PKA catalytic subunit kinase inhibition – biochemical, ATP-depletion luminescence, Kemptide substrate, primary screen (AID 524). The conditions noted are these: PKA Kemptide phosphorylation, Kinase-Glo ATP luminescence; at 6 µM; hits give high values. A general note: Kinase-Glo reads ATP consumption through a luciferase reaction.
A word on the inhibition: it is the change of the read-out against control, counted positive when it falls. As for `O=C(OC1CN2CCC1CC2)C12CC3CC(CC(C3)C1)C2` (stereo not given), the inhibition was inactive: -5.2%.

On to `O=C(COc1ccccc1)OC1CN2CCC1CC2` (stereo not given), for which the inhibition was inactive: -0.5%. With `COP1(=S)c2c(C)nn(CCC#N)c2N=C(c2ccc(F)cc2)N1C` (stereo not given) the figure was inactive: 6.2%. As for `Clc1n[nH]nc1-c1nn[nH][15n]1`, the figure is inactive: -1.8%; as for `O=P1(Nc2ccccn2)COc2ccccc2OC1`, inactive: 5.3%. As for `Cc1nn(-c2ccccc2)c2c1P(=O)(N1CCOCC1)N(C)C(c1ccccc1)=N2` (stereo not given), the figure is inactive: 8.5%; as for `O=P1(Nc2ccc(Br)cn2)COc2ccccc2OC1`, inactive: 9%.

In the case of `Cc1ccc(OCC(=O)OC2CN3CCC2CC3)cc1` (stereo not given), the inhibition was inactive: 5.3%. Take `O=P1(Nc2ncccn2)COc2ccccc2OC1`: the inhibition was inactive: 3.6%. With `CCOP1(=S)c2c(C)nn(CCC#N)c2N=C(c2ccccc2F)N1C` (stereo not given) the figure was inactive: 0%. With `O=P(Nc1nccs1)(c1ccccc1)c1nc2ccccc2s1` (stereo not given) the figure was inactive: 3.5%; with `CCOP1(=S)c2c(C)nn(CCC#N)c2N=C(c2ccc(F)cc2)N1C` (stereo not given), inactive: 9.6%; with `Cc1cccc(OCC(=O)OC2CN3CCC2CC3)c1` (stereo not given), inactive: 4.4%.

For `O=P1(Nc2nc3ccc(Cl)cc3s2)COc2ccccc2O1` (stereo not given), the inhibition is inactive: -6%. For the compound `COC(=O)c1cc2c(s1)N=C(c1ccccc1)N(C)P2(=O)N1CCOCC1` (stereo not given), the inhibition was inactive: 5.9%. With `O=C(OC1CN2CCC1CC2)c1cccc(Cl)c1` (stereo not given) the figure was inactive: -2.3%. Consider `c1nnnn1CCn1cnnn1`, for which the inhibition is inactive: 2.8%. Regarding `O=P(Nc1nccs1)(c1ccccc1)c1ccccc1`, the inhibition is inactive: 7%. For the compound `CCc1nc2c(n1)c1c(non1O)c1c2no[n+]1[O-]`, the inhibition was inactive: 4.3%.

Turning to `Cc1c2non([O-])c-2c(C)[n+](=O)[n+]1[O-]`, the inhibition was inactive: 12.7%.
